Laboratory results as given in PubChem BioAssay (Tox21).
Only a part is listed here, and it is no random draw. Calls of active or inactive are those of the source. Calls follow the shape of the dose curve; as a rule, active = well fitted activation curve with a large enough effect in the repeat runs; inconclusive = weak or mixed curves; inactive = flat fitted curve, though single readings scatter. Where a call stands in place of a potency, no number is given.

Protein sequences, listed by entry. Tags and fused reporters are not part of them.
UniProt Q969F8, whole entry, looked up: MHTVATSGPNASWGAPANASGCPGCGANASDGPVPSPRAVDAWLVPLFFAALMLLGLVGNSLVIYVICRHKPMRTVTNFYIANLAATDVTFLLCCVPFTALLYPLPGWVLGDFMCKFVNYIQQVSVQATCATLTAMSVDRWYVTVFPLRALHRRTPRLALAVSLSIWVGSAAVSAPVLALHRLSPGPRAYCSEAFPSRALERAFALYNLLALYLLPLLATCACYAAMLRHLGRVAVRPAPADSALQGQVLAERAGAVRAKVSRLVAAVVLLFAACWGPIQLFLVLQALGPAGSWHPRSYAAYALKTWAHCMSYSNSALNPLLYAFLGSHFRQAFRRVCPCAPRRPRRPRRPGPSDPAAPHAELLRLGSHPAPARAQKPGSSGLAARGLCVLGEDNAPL

The molecules below were run against KiSS-1 receptor (Homo sapiens) (UniProt Q969F8) (assay: Human kisspeptin (KISS1R) small molecule agonists, calcium flux assay in KISS1R-HEK293 cells (AID 1920064)). Conditions: KISS1R-HEK293, calcium flux fluorescence, agonist; series mostly up to 76.8 µM.
Excerpt: National Center for Advancing Translational Sciences [NCATS]
Division of Preclinical Innovation [DPI]
U.S. Environmental Protection Agency [EPA]
National Institutes of Environmental Health Sciences [NIEHS]
National Toxicology Program [NTP]
U.S. Food and Drug Administration [FDA]
Kisspeptin and its receptor KISS1R play key roles in mammalian reproduction due to their involvement in the onset of puberty and control of the hypothalamic-pituitary-gonadal axis such as regulates GnRH release from the hypothalamus. The kisspeptin/KISS1R system also plays a direct role in peripheral organs (including the ovary, testis, uterus, and placenta) and is implicated in reproductive diseases such as miscarriage and polycystic ovary syndrome (PCOS). Abnormal KISS1R activity is associated with abnormal puberty, infertility, endometriosis, and hormone-dependent tumors. The KISS1 receptor (KISS1R, also called GPR54), a G-protein-coupled receptor (GPCR), acts (through phospholipase C) to increase intracellular inositol trisphosphate and then release intracellular calcium stores. Cell-based KISS1R-HEK293 assay is using HEK293 cells that have been genetically engineered to express the human KISS1R, which activity can be measured by calcium signaling. A compound/drug can activate (agonist) KISS1R that can be monitored by levels of intracellular calcium.
KISS1R-HEK293 cells developed by Codex Corp contain human KISS1R gene, which was stably integrated into HEK 293 cells. The compound activation can be detected by fluorescence intensity via calcium flux assay. This cell line has been used to screen the Tox21 10K compound library to identify agonists of KISS1R.
KISS1R-Hek293 cells were dispensed at 1500 cells/4uL/well in 1536-well black wall/clear bottom plates using a multidrop dispenser. After the assay plates were incubated at a 37 C/5% CO2 incubator for 18 hours, 4 microL of Calcium Dye Solution was added to each well. The plates were incubated at 37 C for 1 hour. And then 23 nL of compounds dissolved in DMSO, positive controls, or DMSO only was transferred to the assay plate by a pin tool station. The fluorescence intensity in the plates was measured using FDSS 7000EX kinetic plate reader with a filter set of Ex/Em=480/540 for 3 min at 1 sec intervals. Each test compound was measured at 15 concentrations and in triplicates.

SMILES | activation | Potency
CCC(C)(OOC(C)(C)C)OOC(C)(C)C | inactive: 1.48% [at 15.8 µM] | 
O=P(Cl)(Cl)c1ccccc1 |  | inactive
O=[N+]([O-])c1ccc(S(=O)(=O)O)c([N+](=O)[O-])c1 |  | inactive
CCCCO[P+](=O)OCCCC |  | inactive
Cc1cc([N+](=O)[O-])c(O)c([N+](=O)[O-])c1 |  | inactive
O=[N+]([O-])c1ccc([N+](=O)[O-])cc1 |  | inactive
CC(C)OP(=S)(OC(C)C)SCCNS(=O)(=O)c1ccccc1 |  | inactive
CN(N=O)C(=N)N[N+](=O)[O-] |  | inactive
CN(C(=O)Cc1ccccc1)[C@H]1CC[C@@]2(CCCO2)C[C@@H]1N1CCCC1 |  | inactive
ClP(Cl)c1ccccc1 |  | inactive
N#CSc1ccc([N+](=O)[O-])cc1[N+](=O)[O-] |  | inactive
O=P(Cl)(Oc1ccccc1)Oc1ccccc1 |  | inactive
CCCCOP(OCCCC)OCCCC |  | inactive
NC(=O)Nc1ccc([As](=O)(O)O)cc1 |  | inactive
CC(C)CCCCCCCOP(OCCCCCCCC(C)C)Oc1ccccc1 |  | inactive
CN(C(=O)Cc1cccc2occc12)[C@H]1CC[C@@]2(CCCO2)C[C@@H]1N1CCCC1 |  | inactive
CCNC(C)Cc1ccc2c(c1)OCO2 (centres undefined) |  | inactive
Cc1cc([N+](=O)[O-])cc([N+](=O)[O-])c1O |  | inactive
COP(=S)(Cl)OC |  | inactive
CN(C(=O)Cc1ccc(Cl)c(Cl)c1)[C@H]1CC[C@@]2(CCCO2)C[C@@H]1N1CCCC1 |  | inactive
CCOC(=O)Cl |  | inactive
COC(=O)Cl |  | inactive
O=[P+](Oc1ccccc1)Oc1ccccc1 |  | inactive
O=C(Cl)OCCOC(=O)Cl |  | inactive
CCCCC(CC)CO[P+](=O)OCC(CC)CCCC (centres undefined) |  | inactive
O=[p+]1oc2ccccc2c2ccccc21 (centres undefined) |  | inactive
CCCCCCCCCCCCCC[P+](CCCCCC)(CCCCCC)CCCCCC |  | inactive
O=C(Cl)Oc1ccccc1 |  | inactive
CCOP(=S)(CC)Sc1ccccc1 (centres undefined) |  | inactive
